Results on one compound are retold here after ChEMBL document CHEMBL4622974, “Leveraging an Open Science Drug Discovery Model to Develop CNS-Penetrant ALK2 Inhibitors for the Treatment of Diffuse Intrinsic Pontine Glioma” (J Med Chem, 2020).

The chains behind the UniProt entries cited, without tags or fusion partners. Where a name states a change or a piece, a line headed by the entry shows the natural chain unless it says otherwise.
UniProt O95819: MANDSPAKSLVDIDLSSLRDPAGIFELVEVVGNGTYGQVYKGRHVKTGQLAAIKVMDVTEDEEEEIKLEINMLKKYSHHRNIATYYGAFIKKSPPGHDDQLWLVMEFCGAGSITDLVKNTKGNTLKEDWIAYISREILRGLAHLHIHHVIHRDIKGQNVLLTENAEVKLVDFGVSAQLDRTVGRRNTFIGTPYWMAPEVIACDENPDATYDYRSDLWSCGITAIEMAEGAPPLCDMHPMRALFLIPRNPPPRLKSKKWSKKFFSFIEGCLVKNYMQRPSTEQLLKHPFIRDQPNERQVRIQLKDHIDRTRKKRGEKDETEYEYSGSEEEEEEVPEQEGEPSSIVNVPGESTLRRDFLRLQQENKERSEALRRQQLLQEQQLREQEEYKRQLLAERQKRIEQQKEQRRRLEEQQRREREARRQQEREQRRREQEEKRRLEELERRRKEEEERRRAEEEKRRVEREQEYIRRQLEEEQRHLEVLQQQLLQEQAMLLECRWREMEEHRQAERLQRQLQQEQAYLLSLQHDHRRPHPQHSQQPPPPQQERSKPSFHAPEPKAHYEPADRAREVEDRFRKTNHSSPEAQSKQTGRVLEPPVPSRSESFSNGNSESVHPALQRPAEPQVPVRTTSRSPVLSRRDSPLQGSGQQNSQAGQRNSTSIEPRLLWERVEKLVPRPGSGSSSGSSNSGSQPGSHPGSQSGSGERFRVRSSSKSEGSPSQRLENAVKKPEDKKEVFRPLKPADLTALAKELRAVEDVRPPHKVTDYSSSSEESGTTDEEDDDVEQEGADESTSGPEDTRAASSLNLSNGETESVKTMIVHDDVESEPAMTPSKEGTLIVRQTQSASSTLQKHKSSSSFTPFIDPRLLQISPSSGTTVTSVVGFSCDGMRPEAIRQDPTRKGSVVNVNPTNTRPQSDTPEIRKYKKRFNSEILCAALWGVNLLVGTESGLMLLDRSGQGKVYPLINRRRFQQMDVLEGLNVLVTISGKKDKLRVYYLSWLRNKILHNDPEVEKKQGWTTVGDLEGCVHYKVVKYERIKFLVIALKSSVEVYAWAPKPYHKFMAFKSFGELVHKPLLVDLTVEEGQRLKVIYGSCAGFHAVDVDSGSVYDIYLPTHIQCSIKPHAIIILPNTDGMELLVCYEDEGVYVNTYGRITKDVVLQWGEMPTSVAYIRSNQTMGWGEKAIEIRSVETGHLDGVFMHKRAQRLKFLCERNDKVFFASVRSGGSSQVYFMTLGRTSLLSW
UniProt P07948: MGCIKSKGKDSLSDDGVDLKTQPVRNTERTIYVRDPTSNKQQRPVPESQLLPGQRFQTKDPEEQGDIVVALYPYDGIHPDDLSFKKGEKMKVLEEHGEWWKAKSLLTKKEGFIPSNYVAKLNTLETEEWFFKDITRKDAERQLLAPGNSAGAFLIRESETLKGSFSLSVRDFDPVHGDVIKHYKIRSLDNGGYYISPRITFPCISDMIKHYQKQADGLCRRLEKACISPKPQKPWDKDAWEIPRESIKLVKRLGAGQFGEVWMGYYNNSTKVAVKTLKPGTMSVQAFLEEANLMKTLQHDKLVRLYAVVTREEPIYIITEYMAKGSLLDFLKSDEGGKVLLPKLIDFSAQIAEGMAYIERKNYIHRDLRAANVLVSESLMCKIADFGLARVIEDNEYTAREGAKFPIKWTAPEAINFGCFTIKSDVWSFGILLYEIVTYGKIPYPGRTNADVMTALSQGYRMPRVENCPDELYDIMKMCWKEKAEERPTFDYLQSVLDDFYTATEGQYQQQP
UniProt Q9Y2K2: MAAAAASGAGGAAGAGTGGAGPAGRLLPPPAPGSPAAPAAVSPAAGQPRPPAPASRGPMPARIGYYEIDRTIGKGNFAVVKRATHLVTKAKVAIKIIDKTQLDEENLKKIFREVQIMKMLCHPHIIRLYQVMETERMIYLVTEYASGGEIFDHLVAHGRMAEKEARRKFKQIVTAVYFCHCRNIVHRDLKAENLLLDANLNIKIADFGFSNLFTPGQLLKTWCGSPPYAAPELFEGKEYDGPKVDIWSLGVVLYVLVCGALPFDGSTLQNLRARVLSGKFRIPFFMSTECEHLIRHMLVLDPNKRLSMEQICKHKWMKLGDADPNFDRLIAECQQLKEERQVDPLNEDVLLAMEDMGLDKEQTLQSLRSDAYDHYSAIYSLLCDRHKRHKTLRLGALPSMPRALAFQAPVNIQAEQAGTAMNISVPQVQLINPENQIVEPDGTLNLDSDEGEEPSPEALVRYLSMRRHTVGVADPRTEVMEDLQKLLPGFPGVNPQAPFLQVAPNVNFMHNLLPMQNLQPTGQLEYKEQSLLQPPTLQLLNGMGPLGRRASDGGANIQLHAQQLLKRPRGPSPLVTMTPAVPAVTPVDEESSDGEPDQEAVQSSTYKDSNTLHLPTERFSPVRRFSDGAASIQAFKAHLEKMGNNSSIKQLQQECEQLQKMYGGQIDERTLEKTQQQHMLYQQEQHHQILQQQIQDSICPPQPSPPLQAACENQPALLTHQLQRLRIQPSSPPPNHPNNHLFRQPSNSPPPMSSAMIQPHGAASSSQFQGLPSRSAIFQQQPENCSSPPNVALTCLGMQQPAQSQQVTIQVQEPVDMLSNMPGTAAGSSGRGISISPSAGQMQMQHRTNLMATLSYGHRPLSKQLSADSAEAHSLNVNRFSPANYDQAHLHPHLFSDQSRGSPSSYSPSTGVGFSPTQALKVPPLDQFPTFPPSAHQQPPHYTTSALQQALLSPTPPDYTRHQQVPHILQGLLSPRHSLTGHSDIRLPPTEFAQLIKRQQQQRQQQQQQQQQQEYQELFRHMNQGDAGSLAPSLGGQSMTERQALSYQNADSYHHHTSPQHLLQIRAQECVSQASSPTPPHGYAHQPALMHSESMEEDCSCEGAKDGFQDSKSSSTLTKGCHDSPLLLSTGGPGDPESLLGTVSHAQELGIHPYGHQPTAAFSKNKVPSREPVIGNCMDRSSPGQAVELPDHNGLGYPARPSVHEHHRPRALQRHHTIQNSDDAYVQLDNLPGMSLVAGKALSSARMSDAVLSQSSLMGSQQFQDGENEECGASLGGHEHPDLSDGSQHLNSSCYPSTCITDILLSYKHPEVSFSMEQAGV
UniProt P06239: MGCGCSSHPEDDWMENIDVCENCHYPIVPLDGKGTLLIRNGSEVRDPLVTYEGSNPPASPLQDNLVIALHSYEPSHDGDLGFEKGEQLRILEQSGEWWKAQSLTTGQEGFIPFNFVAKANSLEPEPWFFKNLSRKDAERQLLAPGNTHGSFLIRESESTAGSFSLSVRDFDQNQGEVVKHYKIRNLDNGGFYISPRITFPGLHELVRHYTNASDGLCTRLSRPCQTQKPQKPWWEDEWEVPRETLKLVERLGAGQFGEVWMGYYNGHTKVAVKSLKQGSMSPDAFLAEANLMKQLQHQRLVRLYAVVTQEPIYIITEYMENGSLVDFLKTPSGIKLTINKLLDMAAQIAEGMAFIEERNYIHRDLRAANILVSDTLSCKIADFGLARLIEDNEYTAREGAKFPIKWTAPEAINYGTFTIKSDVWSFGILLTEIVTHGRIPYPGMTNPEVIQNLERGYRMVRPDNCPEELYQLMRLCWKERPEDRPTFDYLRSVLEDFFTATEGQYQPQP
UniProt Q9H1R3: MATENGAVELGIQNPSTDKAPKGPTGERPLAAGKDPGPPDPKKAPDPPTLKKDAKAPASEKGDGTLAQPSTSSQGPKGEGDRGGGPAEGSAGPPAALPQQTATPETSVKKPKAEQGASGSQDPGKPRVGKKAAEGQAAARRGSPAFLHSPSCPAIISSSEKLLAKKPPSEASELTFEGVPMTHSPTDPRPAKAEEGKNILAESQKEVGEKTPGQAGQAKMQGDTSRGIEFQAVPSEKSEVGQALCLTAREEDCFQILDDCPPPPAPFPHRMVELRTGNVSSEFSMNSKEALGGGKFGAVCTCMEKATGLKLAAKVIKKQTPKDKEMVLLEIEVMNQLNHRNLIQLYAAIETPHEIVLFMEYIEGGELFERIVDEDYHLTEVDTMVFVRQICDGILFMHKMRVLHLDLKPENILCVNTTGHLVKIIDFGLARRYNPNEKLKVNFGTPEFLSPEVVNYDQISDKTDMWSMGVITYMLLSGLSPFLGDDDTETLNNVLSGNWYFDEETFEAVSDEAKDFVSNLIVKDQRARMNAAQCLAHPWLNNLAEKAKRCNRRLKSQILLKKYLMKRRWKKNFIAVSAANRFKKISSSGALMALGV
UniProt Q9Y4K4: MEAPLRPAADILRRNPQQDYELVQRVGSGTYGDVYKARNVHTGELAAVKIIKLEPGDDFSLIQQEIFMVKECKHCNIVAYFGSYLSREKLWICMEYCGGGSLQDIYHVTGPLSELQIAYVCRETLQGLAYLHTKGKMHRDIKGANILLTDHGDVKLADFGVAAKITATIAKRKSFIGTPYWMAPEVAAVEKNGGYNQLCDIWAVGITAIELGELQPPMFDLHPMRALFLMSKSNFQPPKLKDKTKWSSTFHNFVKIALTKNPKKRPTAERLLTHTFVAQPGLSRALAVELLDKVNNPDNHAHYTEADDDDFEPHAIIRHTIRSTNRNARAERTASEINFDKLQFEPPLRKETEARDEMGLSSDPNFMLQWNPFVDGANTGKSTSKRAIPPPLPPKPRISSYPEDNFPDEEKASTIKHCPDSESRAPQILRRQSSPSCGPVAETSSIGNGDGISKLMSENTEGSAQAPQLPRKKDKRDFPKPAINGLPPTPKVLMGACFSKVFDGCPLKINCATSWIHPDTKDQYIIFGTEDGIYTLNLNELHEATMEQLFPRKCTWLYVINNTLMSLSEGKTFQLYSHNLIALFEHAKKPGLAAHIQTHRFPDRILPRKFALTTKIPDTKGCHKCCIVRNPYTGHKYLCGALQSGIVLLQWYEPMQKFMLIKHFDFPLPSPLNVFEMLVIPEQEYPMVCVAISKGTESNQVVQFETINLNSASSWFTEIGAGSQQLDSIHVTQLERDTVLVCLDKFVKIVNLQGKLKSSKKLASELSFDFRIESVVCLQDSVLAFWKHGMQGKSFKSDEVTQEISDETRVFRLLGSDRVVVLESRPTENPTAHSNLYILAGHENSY

What all share (conditions): 1 uM
Assay [1] concerns the target Mitogen-activated protein kinase kinase kinase kinase 4 (Homo sapiens) (UniProt O95819).
Assay [2] addresses Tyrosine-protein kinase Lyn (Homo sapiens) (UniProt P07948).
Assay [3] concerns the target Serine/threonine-protein kinase SIK3 (Homo sapiens) (UniProt Q9Y2K2).
Assay [4] deals with T1, Serine/threonine-protein kinase NLK (Homo sapiens) (UniProt Q9UBE8).
T1 sequence (whole entry): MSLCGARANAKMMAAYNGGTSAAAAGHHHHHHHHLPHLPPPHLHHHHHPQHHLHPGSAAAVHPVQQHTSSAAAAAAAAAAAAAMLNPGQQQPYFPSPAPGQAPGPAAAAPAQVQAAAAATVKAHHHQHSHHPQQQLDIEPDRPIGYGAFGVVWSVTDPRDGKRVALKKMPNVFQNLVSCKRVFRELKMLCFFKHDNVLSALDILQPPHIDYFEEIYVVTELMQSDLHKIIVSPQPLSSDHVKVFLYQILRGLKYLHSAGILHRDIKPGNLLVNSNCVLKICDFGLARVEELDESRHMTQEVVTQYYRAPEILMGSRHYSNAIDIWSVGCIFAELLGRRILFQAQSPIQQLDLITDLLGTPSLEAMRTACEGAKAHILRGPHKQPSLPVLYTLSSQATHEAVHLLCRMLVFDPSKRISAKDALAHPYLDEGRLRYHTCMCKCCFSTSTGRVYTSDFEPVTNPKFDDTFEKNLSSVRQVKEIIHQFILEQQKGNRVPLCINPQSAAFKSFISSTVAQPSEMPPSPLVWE

Assay [5] deals with Tyrosine-protein kinase Lck (Homo sapiens) (UniProt P06239).
The target in assay [6] is Myosin light chain kinase 2, skeletal/cardiac muscle (Homo sapiens) (UniProt Q9H1R3).
The target of assay [7] is Mitogen-activated protein kinase kinase kinase kinase 5 (Homo sapiens) (UniProt Q9Y4K4).

Molecules are shown by their SMILES. The source made the active and inactive calls. No cut-off for these calls is given here.

For the compound `COc1cc(-c2cncc(-c3ccc(N4CCNCC4)cc3)c2C)cc(OC)c1F`, the inhibition in assay [1], in assay [2], in assay [3], in assay [5], in assay [6] and in assay [7] was 51 to 61% throughout. Besides, in assay [4], the inhibition entry was “inactive”.

In general, inhibition refers to the percentage by which the read-out fell short of the control.
